AlphaSeq binding of Ab-14 heavy chain variants to a spike HR2 peptide

From the AlphaSeq antibody data of Li et al. 2023 (doi:10.1038/s41467-023-39022-2), copy in the FLAb collection.

Binding partner: SARS-CoV-2 spike HR2 peptide, sequence PDVDLGDISGINAS.

Each scFv is VH, a (GGGGS)3 linker, VL, as in the parent Ab-14, and differs from it in the CDRs of the heavy chain only.
VH: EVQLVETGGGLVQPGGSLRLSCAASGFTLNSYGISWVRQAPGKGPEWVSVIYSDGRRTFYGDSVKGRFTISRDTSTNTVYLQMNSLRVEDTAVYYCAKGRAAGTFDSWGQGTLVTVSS
VL: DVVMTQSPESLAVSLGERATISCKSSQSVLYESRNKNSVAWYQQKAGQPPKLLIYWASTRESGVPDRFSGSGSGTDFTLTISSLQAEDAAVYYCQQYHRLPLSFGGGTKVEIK

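The parent was found by panning a naive human phage display library on the peptide. This is the validation round: designs drawn from the data on random variants, tested in the same kind of assay. Group labels follow the data file (Ctrl: baseline library sampled from a position-specific scoring matrix, with some repeated check sequences; Rand: our label for a block that the file lists under HC and that is probably the random mutants of the ten best first-round binders; GP: Gaussian process model; GPLM: also part of the Gaussian process libraries; HC: hill climbing; Gen: genetic algorithm; Gibbs: Gibbs sampling; a sequence that several methods proposed may carry one label only). In AlphaSeq, yeast of one mating type display the scFv and yeast of the other type display the target. Pairs that bind mate more often; barcode pairs of the diploids are counted by sequencing. A regression on co-assayed BCL2-family reference pairs converts the normalised counts of each replicate to an apparent Kd. Each pool was mated in six replicate cultures.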

Changes read parent residue, position, new residue, counted from the first residue of the VH shown. This list holds designs with at most six substitutions. The read-out is the apparent dissociation constant on a log10 scale (nM): the lower, the stronger. The mean shown is taken over the replicates in which the pair was detected. A pair that was not seen in any replicate is written "nd"; this usually means weak binding, but a binder can also be missed. The authors averaged sequences with at least three values out of six and counted those with two or fewer as poor binders. A sequence measured in both rounds can read differently, since the two assays cover different ranges. Nonspecific signal, from three strains lacking the peptide, appeared in 1% of pairings of all heavy chain designs, centred on 2.08 (5% of these signals below 0.84); values are not corrected for it. Some sequences occur more than once in the pool; their replicates are pooled.

The variant R56V+R100Q+S107L [GPLM_Gibbs] showed 1.94 (5 of 6 replicates). For T28G+G61I+S63E+A101T [GP_Gibbs], the assay gave 0.72 (4 of 6 replicates). The variant N30D+Y52S [Ctrl] gave nd (0 of 6 replicates). The variant S31E+Y60Q+V64A+G103V+S107Q [Rand] gave nd (0 of 6 replicates). The variant T28D+A101Q+S107Q [GP_Gen] showed 1.19 (6 of 6 replicates). The variant D106V [Ctrl] showed nd (0 of 6 replicates).

For L29V+S31E+A101I [Ctrl], the assay gave 0.50 (6 of 6 replicates). The variant S31E+S35H+F59A+D106H [Ctrl] showed nd (0 of 6 replicates). With T28N+S63Q+A101L [GP_Gibbs] the result was 1.89 (5 of 6 replicates). The variant A102P+S107H [Ctrl] gave 2.81 (1 of 6 replicates). With T28Q+G61V+R100Q+A101T [GP_Gibbs] the result was 1.87 (6 of 6 replicates). The variant R56L+G103A [Ctrl] showed nd (0 of 6 replicates).

The variant G26K+T28E+A101T [GPLM_Gibbs] gave 2.38 (6 of 6 replicates). For S31D+F59W [Ctrl+GPLM_HC], the assay gave 1.22 (12 of 12 replicates). The variant T28E+G61C+R100Q+A101L [GP_HC] gave -1.18 (1 of 6 replicates). The variant F59S+G61N+R100V+T104A+D106F [Ctrl] showed nd (0 of 6 replicates). The variant L29I+I51M+G61A [Ctrl] gave 1.04 (5 of 6 replicates). With G26F+S31E+G61A+A101T [GP_HC] the result was 0.87 (6 of 6 replicates).

The variant N30E+G61S+R100L [GP_HC] showed 0.75 (6 of 6 replicates). For T28N+S63A+A101L [GP_Gibbs], the assay gave 1.43 (6 of 6 replicates). The variant N30A+G61D+R100Q+A101G [Rand] gave nd (0 of 6 replicates). The variant T28A+G61K [Ctrl] showed nd (0 of 6 replicates). The variant S53A+R56K+S63Q+D106K [GP_HC] showed nd (0 of 6 replicates). With S31D+G61T+A101F+S107V [GP_HC] the result was 1.47 (3 of 6 replicates).

With T28S+S31D+F59E [GP_HC] the result was 0.80 (6 of 6 replicates). With F59A+A101E+T104R [Ctrl] the result was nd (0 of 6 replicates). The variant N30D+S53A+D106K [GPLM_HC] gave -0.30 (6 of 6 replicates). With T28N+R100P+S107W [Ctrl] the result was nd (0 of 6 replicates). With N30L+S31D+R56K [Ctrl] the result was 1.18 (6 of 6 replicates). The variant G61I+A102S [Ctrl] showed nd (0 of 6 replicates).

The variant T28V+D106S [Ctrl] gave nd (0 of 6 replicates). The variant S53A+G103V [Ctrl] gave 1.63 (1 of 6 replicates). For G26K+T28D+G61I+R100N [GP_Gen], the assay gave 2.08 (4 of 6 replicates). With F27Y+N30Q+D106L [Ctrl] the result was nd (0 of 6 replicates). For T28D+G61V+R100Q+A101T [GP_Gen], the assay gave 0.85 (5 of 6 replicates). For T28E+S63N+R100N+A101T [GP_Gibbs], the assay gave 1.06 (4 of 6 replicates).

The first 4 entries again:

changes	group	log10 Kd (nM), mean	seen in
R56V+R100Q+S107L	GPLM_Gibbs	1.94	5 of 6
T28G+G61I+S63E+A101T	GP_Gibbs	0.72	4 of 6
N30D+Y52S	Ctrl	nd	0 of 6
S31E+Y60Q+V64A+G103V+S107Q	Rand	nd	0 of 6